Experimental data published in ChEMBL document CHEMBL1151751, “Bisphosphonate inhibition of a Plasmodium farnesyl diphosphate synthase and a general method for predicting cell-based activity from enzyme data” (J Med Chem, 2008).

Assay: Inhibition of Plasmodium vivax FPPS expressed in Escherichia coli BL21 by spectrophotometric assay
Summary of the method: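 Recombinant enzyme from lysed cells (lysozyme, nuclease, protease inhibitors), purified on Ni-NTA resin. The GPP + IPP condensation was followed at room temperature by a continuous spectrophotometric phosphate-release assay in 25 mM Hepes, 2.5 mM MgCl₂, pH 7.4. Inhibitors were preincubated with enzyme for 30 min at room temperature. IC50 was obtained by fitting the dose–response curve.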

With `O.O=P(O)(O)C(O)(Cn1ccnc1)P(=O)(O)O` [ZOLEDRONIC ACID] the pIC50 was 6.1.
